{
  "source": "paper PMC9016704",
  "about": "“Dichlorophenylpyridine-Based Molecules Inhibit Furin through an Induced-Fit Mechanism” (ACS Chemical Biology, 2022)",
  "origin": "cited, not measured here",
  "system": "DPP-4",
  "design": "method as in PMID 27438064",
  "conditions": "on-rate to DPP-4; cited from earlier work",
  "data": [
    {"compound": "N#C[C@@H]1CCCN1C(=O)CNC12CC3CC(CC(O)(C3)C1)C2", "note": "[vildagliptin]", "values": [
      {"measurement": "on-rate", "result": "7.1 × 10^4 M^–1 s^–1"}
    ]}
  ]
}
